Source: article PMC10227065, “Structures of Tetrahymena thermophila respiratory megacomplexes on the tubular mitochondrial cristae” (Nature Communications, 2023)

Amino acid sequences for entries named in this document (tags omitted). A change or cut given only in a name is not applied to a line headed by its entry.
UniProt Q950Y4: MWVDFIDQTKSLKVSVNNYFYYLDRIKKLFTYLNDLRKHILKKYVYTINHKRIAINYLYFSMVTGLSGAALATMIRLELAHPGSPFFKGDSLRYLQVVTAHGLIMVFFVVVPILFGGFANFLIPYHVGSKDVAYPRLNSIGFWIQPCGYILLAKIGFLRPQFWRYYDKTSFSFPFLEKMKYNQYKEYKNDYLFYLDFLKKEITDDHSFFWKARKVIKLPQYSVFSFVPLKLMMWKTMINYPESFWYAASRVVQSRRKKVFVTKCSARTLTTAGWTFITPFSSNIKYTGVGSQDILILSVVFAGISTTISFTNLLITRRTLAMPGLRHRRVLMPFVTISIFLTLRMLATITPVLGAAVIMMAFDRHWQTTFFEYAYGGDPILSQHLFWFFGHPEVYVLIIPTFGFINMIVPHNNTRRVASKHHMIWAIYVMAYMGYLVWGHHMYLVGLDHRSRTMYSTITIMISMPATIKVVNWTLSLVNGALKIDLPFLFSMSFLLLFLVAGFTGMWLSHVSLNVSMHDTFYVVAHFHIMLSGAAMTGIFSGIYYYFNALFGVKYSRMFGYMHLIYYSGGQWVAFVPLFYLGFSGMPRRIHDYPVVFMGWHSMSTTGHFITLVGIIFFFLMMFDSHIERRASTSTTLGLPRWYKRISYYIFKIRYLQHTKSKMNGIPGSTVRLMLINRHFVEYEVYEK

Molecular target: Tt-CIV2 (Tetrahymena thermophila, UniProt Q950Y4)
Assay: cyt c oxidation, […] nm
Conditions: 100 mM NaN3; NADH (500 uM) or succinate (5 mM), 50 uM decylubiquinone, 100 uM Tt-cyt c, 10 nM megacomplex, pH 7.4, 0.1% digitonin, room temperature

[N-]=[N+]=N
cyt c oxidation, 550 nm: sodium azide could not inhibit cyt c reduction by Tt-CIII2 but can inhibit its oxidation
